Literature values in article PMC9227077 (2022).
Like-named read-outs stand apart in the source and are kept apart here.

Columns and labels:
human serum albumin = conditions: pH=7.4, isocratic, 10% acetonitrile; available for 37 compounds, remaining calculated by equation; cited from earlier work
[1] = rat, in vivo; cited from earlier work
[2] = experimental, cited from earlier work; for logP: octanol-water partition coefficient

Structure (SMILES) | logk10,HSA (human serum albumin) | Kp,brain [1] | logBB exper. [1] | logP [2] | logD ([2]; pH=5.0, octanol-water) | logD ([2]; pH=7.4, octanol-water)
CN(C)CCCN1c2ccccc2CCc2ccccc21 [Imipramine] | 0.77 | – | – | – | – | –
Cc1nc2n(c(=O)c1CCN1CCC(c3noc4cc(F)ccc34)CC1)CCCC2 [Risperidone] | – | 0.95 | -0.02 | 2.50 | -1.24 | 1.63
OCCOCCN1CCN(C(c2ccccc2)c2ccc(Cl)cc2)CC1 (stereo not shown) [Hydroxyzine] | – | – | – | 3.5 | – | –
